Data reported in BindingDB's records for doi:10.1016/j.ejphar.2003.10.004 (Yamanouchi Pharmaceutical, 2004).

Sequences of proteins named here, by UniProt entry; tags and fusion partners are left off. A change or cut given only in a name is not applied to a line headed by its entry.
UniProt P28223, whole entry: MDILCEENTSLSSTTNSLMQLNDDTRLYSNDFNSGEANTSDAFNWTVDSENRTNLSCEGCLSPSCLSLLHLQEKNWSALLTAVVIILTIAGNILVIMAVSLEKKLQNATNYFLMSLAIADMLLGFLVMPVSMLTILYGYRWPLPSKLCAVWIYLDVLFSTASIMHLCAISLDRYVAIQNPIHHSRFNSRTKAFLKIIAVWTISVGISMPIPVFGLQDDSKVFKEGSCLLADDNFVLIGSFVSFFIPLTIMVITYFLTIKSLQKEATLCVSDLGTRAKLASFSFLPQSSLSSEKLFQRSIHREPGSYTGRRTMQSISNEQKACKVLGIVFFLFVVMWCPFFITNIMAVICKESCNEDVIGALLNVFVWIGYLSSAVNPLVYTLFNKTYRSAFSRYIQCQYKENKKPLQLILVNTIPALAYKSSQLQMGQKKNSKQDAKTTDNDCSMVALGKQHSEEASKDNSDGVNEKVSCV
UniProt P41595, whole entry: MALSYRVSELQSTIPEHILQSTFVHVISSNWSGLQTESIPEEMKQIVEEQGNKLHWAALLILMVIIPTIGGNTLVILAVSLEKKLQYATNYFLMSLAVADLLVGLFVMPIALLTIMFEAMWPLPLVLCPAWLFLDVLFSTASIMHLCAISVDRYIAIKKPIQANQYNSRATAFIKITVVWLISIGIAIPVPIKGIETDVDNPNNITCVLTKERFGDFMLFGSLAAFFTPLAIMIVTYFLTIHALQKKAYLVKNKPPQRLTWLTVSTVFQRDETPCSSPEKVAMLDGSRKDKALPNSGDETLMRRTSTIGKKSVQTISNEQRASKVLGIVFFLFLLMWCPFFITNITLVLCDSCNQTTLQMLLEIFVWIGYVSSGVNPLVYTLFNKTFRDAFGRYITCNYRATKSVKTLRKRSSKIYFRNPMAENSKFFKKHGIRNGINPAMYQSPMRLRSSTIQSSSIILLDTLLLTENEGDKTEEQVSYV
UniProt P28335: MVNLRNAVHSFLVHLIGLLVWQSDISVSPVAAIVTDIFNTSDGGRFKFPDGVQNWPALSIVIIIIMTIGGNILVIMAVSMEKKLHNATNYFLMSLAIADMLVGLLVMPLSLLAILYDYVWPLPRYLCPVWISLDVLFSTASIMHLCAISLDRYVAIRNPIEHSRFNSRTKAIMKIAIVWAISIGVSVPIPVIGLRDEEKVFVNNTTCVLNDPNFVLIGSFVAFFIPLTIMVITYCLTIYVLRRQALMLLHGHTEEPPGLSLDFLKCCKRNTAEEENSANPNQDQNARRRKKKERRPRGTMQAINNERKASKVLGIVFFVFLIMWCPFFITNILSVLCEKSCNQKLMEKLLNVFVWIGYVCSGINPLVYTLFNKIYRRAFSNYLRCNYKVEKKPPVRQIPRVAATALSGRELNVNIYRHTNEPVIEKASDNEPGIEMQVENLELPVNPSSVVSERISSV

Assays:
[1] = biological target: 5-hydroxytryptamine receptor 2A (Homo sapiens, UniProt P28223)
[2] = biological target: 5-hydroxytryptamine receptor 2B (Homo sapiens, UniProt P41595)
[3] = biological target: 5-hydroxytryptamine receptor 2C (Homo sapiens, UniProt P28335)

Clc1cccc(N2CCNCC2)c1 [mCPP]
Ki [1]: 85 nM | Ki [2]: 40 nM | Ki [3]: 16 nM
